“And” between values parts separate entries of the source, which are not always exact repeats. Equal values may be shown once. The list shows a part of the results, in another mix than the full data.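 For each line, cells grew in 96-well plates with the test compound present at a single concentration for 48 hours.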 The source made the active and inactive calls. How the source made its calls: active means growth percent below 10; inactive means the rest.

For this test, the system named is HOP-92 NSCLC. Put plainly: NCI-60 one-dose screen, 48 h (100 = growth as untreated, 0 = no growth, -100 = all killed). The settings on record: 10 µM.
`CCCOP(=S)(Cl)OCCC`: the growth was inactive: 80.6%.

On to `CN(C)CCS`, for which the growth was inactive: 88.2% and inactive: 97.3%.

Consider `O=C(O)C1(O)c2ccccc2-c2ccccc21`, for which the growth was inactive: 93.1%.

With `Nc1cccc(Cl)c1.O=[N+]([O-])c1cc([N+](=O)[O-])c(O)c([N+](=O)[O-])c1`, the growth was inactive: 98.4%.

As to `OCCSCCO`, the growth was inactive: 88.6%.

Take `Nc1cc([As](Cl)Cl)cc(N)c1O`: the growth was inactive: 66.4%.

Take `O=[N+]([O-])N(CCN(CC(Br)([N+](=O)[O-])[N+](=O)[O-])[N+](=O)[O-])CC(Br)([N+](=O)[O-])[N+](=O)[O-]`: the growth was inactive: 113%.

As for `O=C1N([N+](=O)[O-])CCN1[N+](=O)[O-]`, the growth was inactive: 84.3%.

As to `CC[N+]([O-])(CC)Cc1ccccc1.O=[N+]([O-])c1cc([N+](=O)[O-])c(S(=O)(=O)O)c([N+](=O)[O-])c1`, the growth was inactive: 78.7%.

Consider `CP(=O)(OCCCl)N(CCCl)CCCl` (stereo not given), for which the growth is inactive: 97%.

Take `CN(CCO)CCCl.O=[N+]([O-])c1cc([N+](=O)[O-])c(O)c([N+](=O)[O-])c1`: the growth was inactive: 67%.

Turning to `CCN(CC)CCOC(=O)C(O)(c1ccccc1)c1cc(C)c(C)c(C)c1C` (stereo not given), the growth was inactive: 83.6%.

In the case of `CCN(CC)CCOC(=O)C(O)(c1ccccc1)c1cc(C)cc(C)c1C` (stereo not given), the growth was inactive: 87.9%.

For `CCN(C)CC.O=[N+]([O-])c1cc([N+](=O)[O-])c(O)c([N+](=O)[O-])c1`, the growth was inactive: 105%.

As to `O=C(Cl)c1c([N+](=O)[O-])cc([N+](=O)[O-])cc1[N+](=O)[O-]`, the growth is inactive: 100%.

The record behind these values is PubChem BioAssay (NCI).
